Measurements published in ChEMBL document CHEMBL6120980, “Discovery of First Branched-Chain Ketoacid Dehydrogenase Kinase (BDK) Inhibitor Clinical Candidate PF-07328948” (J Med Chem, 2025).

Amino acid sequences for entries named in this document (tags omitted).
UniProt P10632, whole entry: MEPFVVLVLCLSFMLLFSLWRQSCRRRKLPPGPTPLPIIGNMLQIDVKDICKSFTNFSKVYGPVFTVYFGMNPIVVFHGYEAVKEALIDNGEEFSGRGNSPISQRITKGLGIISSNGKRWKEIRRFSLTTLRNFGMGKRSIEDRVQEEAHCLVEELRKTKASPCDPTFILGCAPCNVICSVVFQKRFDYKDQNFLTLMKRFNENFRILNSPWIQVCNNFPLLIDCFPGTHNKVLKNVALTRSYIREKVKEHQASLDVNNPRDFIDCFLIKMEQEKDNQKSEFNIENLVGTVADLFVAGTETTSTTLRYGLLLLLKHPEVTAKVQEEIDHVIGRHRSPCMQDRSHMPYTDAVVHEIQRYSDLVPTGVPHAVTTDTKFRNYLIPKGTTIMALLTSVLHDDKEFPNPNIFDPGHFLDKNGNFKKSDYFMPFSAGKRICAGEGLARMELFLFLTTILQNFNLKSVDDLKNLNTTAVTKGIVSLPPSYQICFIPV

Columns and labels:
[1] = target: Branched-chain alpha-ketoacid dehydrogenase kinase (Mus musculus) (UniProt O55028); conditions: C57BL/6J, dose 10-30 mg/kg, route po, time 10.0 day
[2] = target: Branched-chain alpha-ketoacid dehydrogenase kinase (Mus musculus) (UniProt O55028); conditions: C57BL/6J, dose 10-30 mg/kg, route po, time 10.0 day; remark: listed apart in the source
[3] = target: Branched-chain alpha-ketoacid dehydrogenase kinase (Mus musculus) (UniProt O55028); conditions: C57BL6/J, dose 30-90 mg/kg, route po, time 8.0 weeks
[4] = target: Branched-chain alpha-ketoacid dehydrogenase kinase (Mus musculus) (UniProt O55028); conditions: C57BL/6J, dose 10-30 mg/kg, route po, time 10.0 day; remark: listed apart in the source
Cytochrome P450 2C8 [5] = target: T1, Cytochrome P450 2C8 (Homo sapiens, UniProt P10632); test: Inhibition of human CYP2C8-mediated amodiaquine N-dealkylation in human liver microsomes using amodiaquine as substrate assessed as second order rate constant at 3 to 100 uM in presence of NADPH; format: ADME, Microsome; conditions: dose 3-100 µM
[6] = target: Branched-chain alpha-ketoacid dehydrogenase kinase (Mus musculus) (UniProt O55028); conditions: C57BL/6J, dose 10-30 mg/kg, route po, time 10.0 day; remark: listed apart in the source
[7] = target: Branched-chain alpha-ketoacid dehydrogenase kinase (Mus musculus) (UniProt O55028); conditions: C57BL6/J, dose 30-90 mg/kg, route po, time 8.0 weeks; remark: listed apart in the source
[8] = target: Branched-chain alpha-ketoacid dehydrogenase kinase (Mus musculus) (UniProt O55028); conditions: C57BL6/J, dose 30-90 mg/kg, route po, time 8.0 weeks; remark: listed apart in the source
[9] = target: Branched-chain alpha-ketoacid dehydrogenase kinase (Mus musculus) (UniProt O55028); conditions: C57BL6/J, dose 30-90 mg/kg, route po, time 50.0 day
[10] = target: Branched-chain alpha-ketoacid dehydrogenase kinase (Mus musculus) (UniProt O55028); conditions: C57BL6/J, dose 30-90 mg/kg, route po, time 8.0 weeks; remark: listed apart in the source
[11] = target: Branched-chain alpha-ketoacid dehydrogenase kinase (Mus musculus) (UniProt O55028); conditions: C57BL6/J, dose 30-90 mg/kg, route po, time 8.0 weeks; remark: listed apart in the source
[12] = target: Branched-chain alpha-ketoacid dehydrogenase kinase (Mus musculus) (UniProt O55028); conditions: C57BL/6J, dose 10-30 mg/kg, route po, time 10.0 day; remark: listed apart in the source
Cytochrome P450 2C8 [13] = target: T1, Cytochrome P450 2C8; test: Time-dependent inhibition of human CYP2C8-mediated amodiaquine N-dealkylation in human liver microsomes using amodiaquine as substrate assessed as second order rate constant measured after 1 to 40 min in presence of NADPH; format: ADME, Microsome; conditions: time 1-40 min

## COc1c(F)c(F)cc(-c2c(C(=O)O)sc3cc(F)ccc23)c1F
[1]
  inhibition: Dose-dependent-effect
[2]
  inhibition: Dose-dependent-effect
[3]
  inhibition: Dose-dependent-effect
[4]
  inhibition: Dose-dependent-effect
Cytochrome P450 2C8 [5]
  K: 0.433 µmol/min
[6]
  inhibition: Dose-dependent-effect
[7]
  inhibition: Dose-dependent-effect
[8]
  inhibition: Active
[9]
  inhibition: Active; Qualitatively Larger Effect Observed Compare To Day #
[10]
  inhibition: Dose-dependent-effect
[11]
  inhibition: Active
[12]
  inhibition: Dose-dependent-effect
Cytochrome P450 2C8 [13]
  K: 7.22 M⁻¹ s⁻¹

Activity calls are given as the source filed them. The rule behind the calls is not given here.
